These are literature values, as cited in patent US5393772A, “Use of, and method of treatment using, hydroxycarbazole compounds for inhibition of smooth muscle migration and proliferation” (Boehringer Mannheim Pharmaceuticals Corporation, priority 1993, dated 1995).

Read-outs that look alike come from different tables or passages of the source.

For series [1], the system named is acute myocardial infarction. As to conditions: canine; cited from earlier work.
Another series relates to calcium channel. Conditions: at higher concentrations; cited from earlier work.
For another series, the system named is β-adrenoceptor. Conditions: cited from earlier work.
Series [2] concerns acute myocardial infarction. As to conditions: rat; cited from earlier work.
The next series deals with smooth muscle. Conditions: copending application Ser. No. 08/026892; cited from earlier work.
In a further series the test system is α1-adrenoceptor. Conditions: cited from earlier work.
The conditions of series [3]: without concomitant reflex changes in heart rate; cited from earlier work.
Series [4] relates to acute myocardial infarction. As to conditions: porcine; cited from earlier work.

In the case of `COc1ccccc1OCCNCC(O)COc1cccc2[nH]c3ccccc3c12` (centres unmarked) [Carvedilol, 1-(carbazol-4-yloxy-3-[[2-(o-methoxyphenoxy)ethyl]amino]-2-propanol)], the infarct size result in series [1], in series [2] and in series [4] was “markedly reduces infarct size” in each case. Besides, the calcium channel antagonism entry in the series on calcium channel is recorded as “calcium channel antagonist at higher concentrations”. In addition, the β-adrenoceptor antagonism result in the series with β-adrenoceptor is “competitive β-adrenoceptor antagonist”. In addition, in the series on smooth muscle, the “smooth muscle migration and proliferation” value is “inhibiting of smooth muscle migration and proliferation”. Also, the “vasodilatory action from α1-adrenoceptor blockade” value with α1-adrenoceptor was “result primarily from α1 -adrenoceptor blockade”. For the same compound, in series [3], the “total peripheral vascular resistance” value is recorded as “decreasing total peripheral vascular resistance without causing the concomitant reflex changes in heart rate”.
